{"source": "ChEMBL document CHEMBL4371003", "about": "“Discovery of Novel Dual Mechanism of Action Src Signaling and Tubulin Polymerization Inhibitors (KX2-391 and KX2-361)” (J Med Chem, 2018)", "key": {"Daoy": {"system": "Daoy", "test": "Antiproliferative activity against human DaOY cells", "type": "functional"}, "U-87 MG": {"system": "U-87 MG", "test": "Antiproliferative activity against human U87 cells", "type": "functional, U-87MG ATCC"}}}
{"smiles": "Cc1nc(Nc2ncc(C(=O)Nc3c(C)cccc3Cl)s2)cc(N2CCN(CCO)CC2)n1.O", "note": "[DASATINIB]", "values": [{"measurement": "GI50", "setting": "Daoy", "result": 2930, "unit": "nM"}, {"measurement": "GI50", "setting": "U-87 MG", "result": 1590, "unit": "nM"}]}
